Measured values taken from US9090618B2, “Substituted benzimidazole-type piperidine compounds and uses thereof” (dated 2015).

The chains behind the UniProt entries cited, without tags or fusion partners. Where a name states a change or a piece, a line headed by the entry shows the natural chain unless it says otherwise.
UniProt P41146: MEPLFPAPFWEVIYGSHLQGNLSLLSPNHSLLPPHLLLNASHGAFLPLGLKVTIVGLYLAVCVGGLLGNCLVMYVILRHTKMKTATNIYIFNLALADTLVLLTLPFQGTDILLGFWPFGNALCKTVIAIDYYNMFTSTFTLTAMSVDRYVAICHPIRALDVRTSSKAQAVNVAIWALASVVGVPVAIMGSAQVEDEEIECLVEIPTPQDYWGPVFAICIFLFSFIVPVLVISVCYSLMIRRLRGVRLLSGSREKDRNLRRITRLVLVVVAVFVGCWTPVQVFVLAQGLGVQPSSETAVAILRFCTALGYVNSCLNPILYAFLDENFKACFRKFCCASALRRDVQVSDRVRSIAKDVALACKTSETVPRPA
UniProt P41145: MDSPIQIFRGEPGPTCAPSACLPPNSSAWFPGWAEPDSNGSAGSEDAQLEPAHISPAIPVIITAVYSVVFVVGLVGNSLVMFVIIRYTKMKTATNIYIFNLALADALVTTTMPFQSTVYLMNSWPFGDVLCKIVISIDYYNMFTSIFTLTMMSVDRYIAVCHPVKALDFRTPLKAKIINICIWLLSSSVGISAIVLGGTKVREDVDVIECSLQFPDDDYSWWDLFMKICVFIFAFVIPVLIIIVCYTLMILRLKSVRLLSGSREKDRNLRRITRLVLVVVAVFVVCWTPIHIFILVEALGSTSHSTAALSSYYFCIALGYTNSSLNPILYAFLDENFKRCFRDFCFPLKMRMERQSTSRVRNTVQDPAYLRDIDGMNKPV
UniProt P35372: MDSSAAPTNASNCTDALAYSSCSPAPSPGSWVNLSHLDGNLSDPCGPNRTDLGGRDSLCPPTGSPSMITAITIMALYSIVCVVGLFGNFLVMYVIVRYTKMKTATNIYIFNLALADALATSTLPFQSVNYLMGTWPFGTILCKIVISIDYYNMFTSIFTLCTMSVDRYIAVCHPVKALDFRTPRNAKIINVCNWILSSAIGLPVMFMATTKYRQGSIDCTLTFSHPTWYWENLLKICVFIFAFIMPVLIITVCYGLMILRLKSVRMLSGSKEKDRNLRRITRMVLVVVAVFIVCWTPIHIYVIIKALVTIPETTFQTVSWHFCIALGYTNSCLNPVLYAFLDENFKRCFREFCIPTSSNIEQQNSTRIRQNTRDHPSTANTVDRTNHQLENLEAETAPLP
UniProt P41143: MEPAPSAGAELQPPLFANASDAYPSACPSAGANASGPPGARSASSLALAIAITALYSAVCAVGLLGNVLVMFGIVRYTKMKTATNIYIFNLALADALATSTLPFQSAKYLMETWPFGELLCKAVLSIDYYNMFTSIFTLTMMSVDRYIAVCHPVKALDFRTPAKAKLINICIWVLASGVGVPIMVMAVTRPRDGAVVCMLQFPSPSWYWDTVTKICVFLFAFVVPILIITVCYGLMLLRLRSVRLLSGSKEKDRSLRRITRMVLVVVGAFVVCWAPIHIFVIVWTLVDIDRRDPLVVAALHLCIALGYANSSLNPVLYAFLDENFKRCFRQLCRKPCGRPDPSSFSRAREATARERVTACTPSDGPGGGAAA

Columns and labels:
[1] = target: T1, human opioid receptor-like (ORL-1) (Homo sapiens (Human), UniProt P41146); assay: In vitro ORL-1 receptor [35S]GTPγS functional assay; conditions: ORL-1 receptor activity response, procedure of Example 22
[2] = target: T1, human opioid receptor-like (ORL-1); assay: In vitro ORL-1 receptor binding assay ([3H]-nociceptin displacement); conditions: read-out: Ki [Average ± Std Deviation] ORL-1, procedure of Example 21
[3] = target: human kappa opioid receptor (Homo sapiens (Human), UniProt P41145); assay: In vitro kappa-opioid receptor binding assay ([3H]-U69,593 displacement); conditions: read-out: Ki [Average ± Std Deviation] Opioid Receptor Kappa, procedure of Example 25
[4] = target: human μ-opioid receptors (Homo sapiens (Human), UniProt P35372); assay: In vitro mu-opioid receptor binding assay ([3H]-diprenorphine displacement); conditions: read-out: Ki [Average ± Std Deviation] Opioid Receptor Mu, procedure of Example 23
[5] = target: recombinant delta opioid receptor expressed in CHO-K1 cells (Homo sapiens (Human), UniProt P41143); assay: In vitro delta-opioid receptor binding assay ([3H]-Naltrindole displacement); conditions: read-out: Ki [Average ± Std Deviation] Opioid Receptor Delta, procedure of Example 27

2-(((E)-((1-((1R,1′R,3r,5S,5′S)-[3,9′-bi(9′-azabicyclo[3.3.1]nonan)]-3′-yl)-1H-benzo[d]imidazol-2-yl)methylene)amino)oxy)acetic acid
GTPγS ORL-1 Emax [mean ± SEM] [1]: 34.7 ± 1.5% | EC50 ([1]; read-out: GTPγS ORL-1 EC50 [mean ± SEM]): 84.2 nM | Ki [2]: 102 nM | Ki [3]: 1540 nM | Ki [4]: 1500 nM | Ki [5]: 3960 nM
